Test results published in patent US11584800B2, “Method of treating cancer comprising administration of anti-HER2 antibody-drug conjugate” (DAIICHI SANKYO COMPANY, LIMITED, priority 2014, dated 2023).

Experiments:
[1] = tested on: Human gastric cancer line NCI-N87 cells; assay: Antitumor test (2), NCI-N87 subcutaneous transplant in nude mice; type: in vivo, nude mouse; settings: 10 mg/kg intravenously on Day 7
Excerpt: The calculation expression is as shown below. […] An untreated group was established as a control group.

[2] = tested on: Human breast cancer line JIMT-1 cells; assay: Antitumor test (3), JIMT-1 subcutaneous transplant in nude mice; settings: 10 mg/kg intravenously on Days 12 and 19

Substance: trastuzumab emtansine
- weight loss of the mice, NCI-N87 test (2) [1]: free from weight loss of the mice
- weight loss of the mice, JIMT-1 test [2]: free from weight loss of the mice
